One test addresses TRPM7 ion channel (Mus musculus, UniProt Q923J1). Description: Whole-cell patch clamp of TRPM7 currents in HEK293 cells. As to conditions: value shown = concentration at which the compound significantly inhibits the ion channel. As for the experimental part:
To further understand the structure function relationships between the TRPM7 inhibitors identified in the TRPM7-dependent HEK death assay, the activity of a subset of these inhibitors described herein were tested for their ability to inhibit TRPM7 currents in cell systems. Whole-cell patch clamp recordings were used essentially as described to test the TRPM7 inhibitors in HEK293 cells, H9c2 cardiomyocytes and cultured neurons. […] Those that provide >10% inhibition of TRPM7 channel activity in the HEK293 cell system were labeled with the concentration tested (generally 5 uM). Thus, the compounds in this table marked with such a value are able to block the activity gof the TRPM7 ion channel. FIGS. 2A-C provide an example of this for the TRPM7 inhibitor 399 (Structure 9). […] Numbers in brackets indicate the number of independent tests, and the bars represent the SEM.
Whole-cell currents were recorded using an Axopatch 1D or MultiClamp 700B amplifier and were digitized at 10 kHz and low-pass filtered at 2 kHz, at room temperature. pClamp10 software was used for data acquisition and analysis. Patch electrodes were pulled from Borosilicate glass and fire polished to a resistance of 2-4 MΩ. All drugs were administrated directly to cell bodies under recording through the fast exchange perfusion system.
The intracellular solution (ICS) contains (mM) 145 Cs-methanesulfonate, 8 NaCl, l MgCl2, 4.1 CaCl2, 10 EGTA, and 10 HEPES, 5 ATP, pH at 7.4, with 300-305 mOsm. The extracellular solution (ECS) contains (mM) 140 NaCl, 5 KCl, 2 CaCl2, 20 HEPES, and 10 glucose, pH at 7.4 and with 315-320 mOsm.
Voltage stimuli lasting 250 ms were delivered at 5-s intervals with voltage ramps ranging from −100 to +100 mV. The current values at −80 mV and +80 mV on I-V curve represent the measures of inward and outward current respectively.
Table X and FIGS. 7-51 show screening data for several additional compounds that are variants of M5, M6 or M21. The synthesis of compounds of Table X and FIGS. 7-51 is shown in Appendices A-C. […]
In general terms: In patch-clamp work, channel activity is measured electrically.

Sequences of proteins named here, by UniProt entry; tags and fusion partners are left off.
UniProt Q923J1, whole entry: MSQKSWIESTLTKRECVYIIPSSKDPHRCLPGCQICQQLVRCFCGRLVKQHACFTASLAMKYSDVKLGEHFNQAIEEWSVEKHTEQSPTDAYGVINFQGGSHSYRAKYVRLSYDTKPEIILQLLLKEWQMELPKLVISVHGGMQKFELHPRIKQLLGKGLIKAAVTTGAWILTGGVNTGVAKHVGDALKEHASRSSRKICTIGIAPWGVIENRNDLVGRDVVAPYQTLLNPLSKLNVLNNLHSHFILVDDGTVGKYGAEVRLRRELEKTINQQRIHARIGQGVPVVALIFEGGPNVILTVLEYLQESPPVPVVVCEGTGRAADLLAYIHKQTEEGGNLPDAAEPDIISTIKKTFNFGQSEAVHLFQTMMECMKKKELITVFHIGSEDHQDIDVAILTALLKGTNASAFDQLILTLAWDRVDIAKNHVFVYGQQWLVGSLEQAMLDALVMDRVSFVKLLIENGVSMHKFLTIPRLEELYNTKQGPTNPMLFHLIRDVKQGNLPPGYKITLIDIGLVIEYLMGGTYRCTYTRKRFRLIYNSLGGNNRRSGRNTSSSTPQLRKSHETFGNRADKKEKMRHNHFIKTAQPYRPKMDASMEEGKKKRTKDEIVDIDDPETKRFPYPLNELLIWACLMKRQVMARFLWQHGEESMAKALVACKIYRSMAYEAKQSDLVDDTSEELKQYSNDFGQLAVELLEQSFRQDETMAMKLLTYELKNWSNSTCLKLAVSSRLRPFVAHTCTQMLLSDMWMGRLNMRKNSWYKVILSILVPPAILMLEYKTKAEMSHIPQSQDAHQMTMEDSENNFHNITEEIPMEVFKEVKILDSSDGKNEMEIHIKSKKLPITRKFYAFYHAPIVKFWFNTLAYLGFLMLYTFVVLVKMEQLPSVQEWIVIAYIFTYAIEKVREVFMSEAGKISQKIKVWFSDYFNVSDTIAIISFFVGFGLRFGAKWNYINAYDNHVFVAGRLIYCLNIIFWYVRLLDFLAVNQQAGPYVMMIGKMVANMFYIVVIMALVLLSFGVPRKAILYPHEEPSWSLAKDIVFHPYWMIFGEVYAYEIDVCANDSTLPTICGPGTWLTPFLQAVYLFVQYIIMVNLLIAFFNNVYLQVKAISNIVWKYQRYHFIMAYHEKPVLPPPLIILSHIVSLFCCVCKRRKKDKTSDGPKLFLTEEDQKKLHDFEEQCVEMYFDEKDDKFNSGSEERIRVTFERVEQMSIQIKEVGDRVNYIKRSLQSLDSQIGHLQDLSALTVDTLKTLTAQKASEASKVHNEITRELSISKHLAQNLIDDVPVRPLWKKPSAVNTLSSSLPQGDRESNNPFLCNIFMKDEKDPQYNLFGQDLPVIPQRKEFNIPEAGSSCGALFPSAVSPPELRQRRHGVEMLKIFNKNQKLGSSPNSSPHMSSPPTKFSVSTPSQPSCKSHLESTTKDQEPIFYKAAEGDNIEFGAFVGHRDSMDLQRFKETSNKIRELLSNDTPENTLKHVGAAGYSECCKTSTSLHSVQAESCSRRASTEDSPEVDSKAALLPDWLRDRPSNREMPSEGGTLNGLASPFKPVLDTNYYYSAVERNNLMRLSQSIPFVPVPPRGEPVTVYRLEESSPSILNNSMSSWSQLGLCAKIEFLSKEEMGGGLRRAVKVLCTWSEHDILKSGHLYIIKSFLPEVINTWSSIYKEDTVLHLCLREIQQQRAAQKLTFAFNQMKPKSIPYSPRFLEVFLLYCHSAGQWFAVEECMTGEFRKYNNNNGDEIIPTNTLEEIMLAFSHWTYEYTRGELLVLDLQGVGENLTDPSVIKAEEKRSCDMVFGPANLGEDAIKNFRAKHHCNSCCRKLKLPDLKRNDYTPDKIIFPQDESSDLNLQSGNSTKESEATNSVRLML

A further test has as its system B16F10. The test can be described thus: Cell proliferation assay, B16F10. The settings on record: 10 uM, 72 hours. Here is the method:
(§1) Cells were grown to 70% confluency, trypsinized, counted, and seeded in 96-well flat-bottom plates at a final concentration of 2.5×10^3-5.0×10^3 cells/well in growth media containing 5% FBS (Day 0). Other well sizes and cell densities were used successfully as well. Cells were allowed to incubate in growth media for 24 hours to allow for maximum adhesion. Treatment with the test agent began on Day 1 and continued for 72 hours either with or without retreatment. At the 72 hour time point, viable cell numbers are quantified by the CellTiter-Glo® cell viability assay as described above, or using standard MTT, SRB or BrDU assays. Experiments were repeated at least twice with the same concentrations to determine growth inhibitory activity. […] In an alternative format, this assay was used to screen potential TRPM7 inhibitory compounds at a fixed concentration, usually 5 or 10 uM. Alternatively, lower or higher concentrations were used. […]
(§2) Data Collection—For the cell proliferation studies, data from each experiment was collected and expressed as % Cell Growth using the following calculation: % Cell Growth=(ftest/fvehicle)×100 Where ftest is the luminescent signal of the tested sample, and fvehicle is the luminescence of the vehicle in which the drug is dissolved (or appropriate measure for the other viability/proliferation measures). […]

The next test relates to Y79. Description: Cell proliferation assay, Y79. As to conditions: 10 uM, 72 hours. As for the experimental part:
as §1, §2

The test system of the next test is MCF10A. The test can be described thus: Cell proliferation assay, MCF10A. The settings on record: 10 uM, 72 hours. As for the experimental part: as §1, §2
The subject of the next test is HeLa. The test can be described thus: Cell proliferation assay, HeLa. The settings on record: 10 uM, 72 hours. Here is the method: as §1, §2
Another test has as its system MCF7. Description: Cell proliferation assay, MCF7. As to conditions: 10 uM, 72 hours. Here is the method:
as §1, §2

In a further test the test system is DMS53. The test can be described thus: Cell proliferation assay, DMS53. The settings on record: 10 uM, 72 hours. Here is the method:
as §1, §2

Another test relates to WI-38. Description: Cell proliferation assay, WI-38. The settings on record: 10 uM, 72 hours. Here is the method:
as §1, §2

A further test has as its target TRPM7 (Mus musculus, UniProt Q923J1). Description: PI uptake cell death assay in TRPM7-expressing HEK-293 cells (type of assay from Example 1). The settings on record: Table X. The source says: The TRPM7 channel provides a pathway for mono- and divalent cations into the cell, and is unique in that it contains a functional C-terminal α-kinase domain. […] The induction of chemical anoxia in host cells such as recombinant HEK293 cells can be used to activate TRPM7. This activation is detectable with the use measurements of cellular calcium accumulation. This is achievable with the use of a fluorescent calcium indicator. Alternatively, this activation can also be measured using radiolabelled Ca2+ (^45Ca^2+) as described previously by Sattler et al. (Sattler et al., 1998) and Aarts et al. (Aarts et al., 2003).
Hoechst 33342 was purchased as a 10 mg/mL solution in water (Molecular Probes Inc., Eugene, Oreg.). Propidium iodide (PI) was purchased as a powder and prepared by dissolving in PBS at 1 mg/mL. PI solutions were stored at 4° C. until use. Hoechst and PI were added directly to cell culture to 5 μg/mL and 10 μg/mL respectively. Cells were incubated at room temperature or at 37° C. for 10 minutes to allow for adequate uptake, and fluorescence observed using a NIKON Eclipse TE2000 inverted microscope and TE-FM Epi-Fluorescence attachment (Nikon Canada).
Untransfected cells or cells transfected with the TRPM7/pTracer or ΔPDZ/pTracer construct were plated onto 24-well plates, 24-hours post-transfection. […] Calcium uptake, as assessed by fluo-3 fluorescence, was measured in response to 0, 5, 10, 15, 20, or 25 mM sodium cyanide (NaCN; Mallinckrodt Baker Inc., Phillipsburg, N.J.) dissolved in aglycaemic HBSS. […] Measurements of fluo-3 fluorescence were taken over a 2 hour period at 10 minutes intervals at room temperature (22-25° C.). […]
Cell death, as assessed by PI uptake, was examined at the end of the 2 hour calcium uptake assay. Cells were stained with 10 μg/mL PI and PI fluorescence measured using the Fluoroskan microplate reader (λ excitation=590 nm, λ emission=630 nm) and accompanying Ascent software (Thermo Electron Corp.). To obtain a reading of maximal fluorescence (Fmax), 0.5% Triton X-100 was added to each well and allowed to incubate for 20 minutes. […]

Consider `COc1ccc2c(c1)C(c1sc3ccccc3c1Cl)=NCC2`, for which the TRPM7 current at TRPM7 ion channel is given as 5 μM (Those that provide >10% inhibition of TRPM7 channel activity in the HEK293 cell system were labeled with the concentration tested (generally 5 uM)).

`CC1c2ccsc2CCN1C(=O)c1sc2ccccc2c1Cl` (stereo not drawn): the TRPM7 current at TRPM7 ion channel is reported as 5 μM (Those that provide >10% inhibition of TRPM7 channel activity in the HEK293 cell system were labeled with the concentration tested (generally 5 uM)).

For `COc1ccc2sc(C(=O)N3CCCc4cc(C)ccc43)c(Cl)c2c1`, in the test with B16F10, the “Inhibition of proliferation, B16F10” value was “+ (A ‘+’ sign indicates that more than 40% inhibition was observed)”. Also, the “Inhibition of proliferation, Y79” value in the test on Y79 is given as “+ (A ‘+’ sign indicates that more than 40% inhibition was observed)”. Besides, in the test on MCF10A, the “Inhibition of proliferation, MCF10A” value is given as “+ (A ‘+’ sign indicates that more than 40% inhibition was observed)”. Besides, in the test with HeLa, the “Inhibition of proliferation, HeLa” value is “+ (A ‘+’ sign indicates that more than 40% inhibition was observed)”. In addition, in the test with MCF7, the “Inhibition of proliferation, MCF7” value is “+ (A ‘+’ sign indicates that more than 40% inhibition was observed)”.

In the case of `COc1ccc2c(Cl)c(C(=O)N3CCCc4cc(C)ccc43)sc2c1`, in the test with B16F10, the “Inhibition of proliferation, B16F10” value was “+ (A ‘+’ sign indicates that more than 40% inhibition was observed)”. Also, in the test with DMS53, the “Inhibition of proliferation, DMS53” value is “+ (A ‘+’ sign indicates that more than 40% inhibition was observed)”. For the same compound, in the test with Y79, the “Inhibition of proliferation, Y79” value is on record as “+ (A ‘+’ sign indicates that more than 40% inhibition was observed)”. Moreover, the “Inhibition of proliferation, MCF10A” value in the test on MCF10A is “+ (A ‘+’ sign indicates that more than 40% inhibition was observed)”. Also, the “Inhibition of proliferation, HeLa” value in the test with HeLa was “+ (A ‘+’ sign indicates that more than 40% inhibition was observed)”. Further, in the test with MCF7, the “Inhibition of proliferation, MCF7” value is listed as “+ (A ‘+’ sign indicates that more than 40% inhibition was observed)”. Also, the “Inhibition of proliferation, WI-38” value in the test with WI-38 is recorded as “+ (A ‘+’ sign indicates that more than 40% inhibition was observed)”.

As to `Cc1c(Cc2ccc(Cl)c(Cl)c2)c(=O)oc2cc(O)c(F)cc12`, on TRPM7 ion channel, the TRPM7 current is recorded as 5 μM (Those that provide >10% inhibition of TRPM7 channel activity in the HEK293 cell system were labeled with the concentration tested (generally 5 uM)).

A word on the IC50: it is the concentration needed to halve the response being measured. For `COc1ccc2sc(C3NCCc4cc(OC)c(OC)cc43)c(Cl)c2c1` (stereo not drawn), on TRPM7 (5 μM, the lower the number, the more potent in protecting against cell death), the “Normalized ratio of PI uptake (5 μM)” value is given as 0.008. For the same compound, the “Normalized ratio of PI uptake (10 μM)” value on TRPM7 (10 μM, the lower the number, the more potent) is 0.012. The half-maximal inhibitory concentration (IC50) at TRPM7 (read-out: IC50 (μM) PI uptake) was found to be 0.32 µM.
